Source: patent publication US20130274212A1, “Sesterterpene Compounds and Use Thereof” (SNU R&DB FOUNDATION, priority 2010, published 2013)

What was measured:
[1] = system: HUVEC endotheliocyte activated by TNF-α; assay: HUVEC endotheliocyte activated by TNF-α (qRT-PCR, Western)
Experimental: MCP-1, which is cytokine importantly involved in the atherosclerosis, is generated in the endotheliocyte to promote induction of monocytes into the inflammatory site and thus contributes to formation of atherosclerosis early lesions (Gerszten R E et al, NATURE, 1999, 718-723). HUVEC endotheliocytes were cultured in EGM-2 medium within a cell incubator containing 5% carbon dioxide at 37° C. One day before treatment with the compound CMDD-X, HUVEC endotheliocytes were seeded on a 6-well plate at 30,000 cells/well. The next day, the cells were pre-treated with compound CMDD-X, for 1 hour, by the concentrations, and then were treated with 10 ng/ml TNF-α for 6 hours, and the qRT-PCR was conducted.
VCAM-1, which is another important factor of atherosclerosis, mediates attachment of monocytes in the early first stage of atherosclerosis and is expressed at the edge of the lesion to be involved in the expansion of the lesion (Nakashima Y et al., Arterioscler Thromb Vasc Biol, 1998, 842-851). In order to verify efficacy of the compound CMDD-X on expression of the intercellular adhesion molecule gene (VCAM-1) in the HUVEC endotheliocytes and expression of protein, the samples were obtained by the same experiment and then qRT-PCR and Western experiments were conducted.

[2] = system: various nuclear receptors (RXR, PPAR, PXR, CAR, ER, LRH-1, GR, NGFI-B, ERR, Rev-erb, GCNF, TR, HNF4, COUP, EAR, VDR, AR, DAX-1, TLX, and VDR); assay: Selectivity: activity on various other nuclear receptors, same reporter method; settings: CV-1 cells, same method as Nurr1
Experimental: Animal cell line CV-1 was used in transfection search. Cells were cultured in DMEM medium within a cell incubator containing 5% carbon dioxide at 37° C. The medium contained 10% fetal bovine serum (FBS), 100 U/ml penicillin, and 100 μg/ml streptomycin. On day 1 of the experiment, CV1 cells were seeded in a 96-well plate at 5,000 cells/well. On day 2, the seeded cells were transfected with plasmid expressing GAL-mNurr1, plasmid expressing luciferase gene, and plasmid expressing β-galactosidase by using a transfection reagent, Superfect (QIAGEN). After 16 hours, the transfected cells were treated with compounds of Chemical Formula I dissolved in dimethylsulfoxide (DMSO) by the concentrations. Cells treated with dimethylsulfoxide having the final concentration of 1% were used as a negative control group. After culturing for 24 hours, the cells were lysed by using a lysis buffer, and luciferin was added thereto to measure the luciferase activity by a luminometer. After addition of an ONPG reagent, β-galactosidase activity was measured by an ELISA reader. The measured luciferase value was corrected by the activity value of β-galactosidase. […] Accordingly, it was verified that the compounds of Chemical Formula I were compounds selective to Nurr1.

[3] = system: C57BL/6J mice fed with high-fat feedstuff; assay: Anti-diabetic efficacy in C57BL/6J mice fed with high-fat diet (glucose and insulin tolerance); settings: high-fat diet C57BL/6J mice, oral 10 mg/kg/day, last 6 weeks
Experimental: In the present example, in order to verify efficacy to prevent and treat diabetes of the compound of Chemical Formula I (CMDD-X or Compound 7) according to the present invention, BKS.Cg-+Lepr^db/+Lepr^db (db/db) mice as an insulin-independent diabetes animal model and general mice (C57BL/6J) fed with high-fat feedstuff were used. After the disease animal model was orally administered with CMDD-X, the diabetes-related index between the administered group and the control group was measured to verify the efficacy as an agent for preventing and treating diabetes. BKS.Cg-+Lepr^db/+Lepr^db (db/db) mice (male, 7-week old) as type 2 diabetes animal model were purchased and used. The experiment animals were adapted to a housing environment for 1 week while pellet type general diet (lab-chow) was supplied, and then divided into 2 groups of 18 mice each by randomized block design to have similar blood sugar and body weight. […] The other organ tissues were rapidly cooled in the liquid nitrogen immediately after removal thereof, and kept at −70° C. and then analyzed. T-test was conducted with respect to the control group and the administered group, a significant difference of less than 5% (P<0.05) was determined as having have a statistical significance. […]

CC(C)=CCC/C(C)=C/[C@@H]1CC(C)=C[C@]2(C=C(CO)[C@H]3CC(=O)C(C)=C[C@H]3O2)O1
expression of MCP-1 ([1]; 1 hour pre-treatment, 10 ng/ml TNF-α 6 hours, qRT-PCR, as concentration increased): significantly decreased | expression of VCAM-1 protein ([1]; TNF-α activated HUVEC, Western): significantly decreased | expression of VCAM-1 gene ([1]; TNF-α activated HUVEC, qRT-PCR): significantly decreased | activity on the other nuclear receptors (selectivity) [2]: never showed activity on the other nuclear receptors | glucose tolerance: blood sugar recovery ([3]; glucose 1 g/kg intraperitoneally): more promptly recovered as compared with the control group | insulin tolerance test: blood sugar after insulin administration ([3]; insulin 1 unit/kg): significantly decreased for 40 minutes after insulin administration as compared with the control group
